Source: patent US20260271928A1, “CONTROL OF PESTS RESISTANT TO INSECTICIDES” (Syngenta Crop Protection Ag, priority 2023, published 2026)

Key:
[1] = test system: Resistant Plutella xylostella; experiment: Resistant Plutella xylostella (rPLU); assay type: in vivo; details: collected 2013, Changhua, Taiwan
Description: Chinese cabbage plants were treated with the diluted test solutions in a spray chamber. After drying, the leaves were cut off and placed in petri dishes with wetted filter paper. One day after treatment, the leaves were infested with 10 Plutella xylostella larvae (L3). Samples were assessed 4 days after infestation for mortality and growth regulation.
Resistant Plutella xylostella (rPLU)
A number of target-sites mutations were identified in this strain which confer resistance to pyrethroids (L1014F, T929I), organophosphates and carbamates (mAChE: A298S and G324A), and organochlorines (rdl: A298S), and diamides (ryr: G4546E).

[2] = test system: Resistant Nilaparvata lugens; experiment: Resistant Nilaparvata lugens (rNIL); assay type: in vivo; details: collected 2005, Karnataka, India
Description: Rice plants were treated with the diluted test solutions in a spray chamber. After drying, plants were infested with ~20 Nilaparvata lugens nymphs (N5). 7 days after the treatment samples were assessed for mortality. The adults were then removed and 15 days after the treatment samples were assessed for effect on F1 generation.
Resistant Nilaparvata lugens (rNIL)
Originally collected from Hosa-Hally, Karnataka district, India in 2005.

Compound	resistance of the rPLU strain to the insecticide [1] [fold]	resistance of the rNIL strain to the insecticide [2] [fold]
CNC(=O)c1cc(Cl)cc(C)c1NC(=O)c1cc(Br)nn1-c1ncccc1Cl [Chlorantraniliprole]	1500	–
CNC(=O)c1cc(C#N)cc(C)c1NC(=O)c1cc(Br)nn1-c1ncccc1Cl [Cyantraniliprole]	300	–
CN/C(=N/CC1CCOC1)N[N+](=O)[O-] (centres unmarked) [Dinotofuran]	–	30
N#Cc1nn(-c2c(Cl)cc(C(F)(F)F)cc2Cl)c(N)c1[S+]([O-])C(F)(F)F (centres unmarked) [Fipronil]	300	–
O=[N+]([O-])NC1=NCCN1Cc1ccc(Cl)nc1 [Imidacloprid]	–	5000
